Here are results for 1 compound from PMC12459314, “Subcutaneous administration of a novel TRPM8 antagonist reverses cold hypersensitivity while attenuating the drop in core body temperature” (British journal of pharmacology, 2024).

Amino acid sequences for entries named in this document (tags omitted).
UniProt P35372, whole entry: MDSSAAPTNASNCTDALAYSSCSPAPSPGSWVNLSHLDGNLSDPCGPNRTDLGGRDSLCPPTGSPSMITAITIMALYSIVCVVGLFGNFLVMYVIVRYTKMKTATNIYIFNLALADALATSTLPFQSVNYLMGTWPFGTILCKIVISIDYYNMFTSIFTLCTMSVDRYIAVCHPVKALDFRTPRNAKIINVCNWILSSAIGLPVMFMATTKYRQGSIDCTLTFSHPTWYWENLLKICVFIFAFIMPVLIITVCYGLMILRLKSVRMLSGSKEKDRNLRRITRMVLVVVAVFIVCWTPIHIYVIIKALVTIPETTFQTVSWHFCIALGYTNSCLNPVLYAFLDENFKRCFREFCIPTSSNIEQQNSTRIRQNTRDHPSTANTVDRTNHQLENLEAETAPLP

The assay deals with T1, μ opioid receptor (OPRM1) (Homo sapiens, UniProt P35372).
T1 construct: purchased Eurofins DiscoverX (SAFETYscan; gpcrSCAN; HitHunter cAMP XS+)
In words: Eurofins DiscoverX opioid receptor assays (SAFETYscan; HitHunter cAMP), OPRM1. Format: cell-based. Conditions: Agonist format, control. The procedure:
Assessment of the safety profile of VBJ103 across 78 assays using recombinant human targets was performed with the SAFETYscan E/IC50 ELECT service by Eurofins DiscoverX (San Diego, CA, USA). […] The assays were performed utilizing PathHunter enzyme fragment complementation (EFC) technology, FLIPR®-based cellular screening assays, KINOMEscan kinase binding assays and a variety of enzymatic assays. Further potential functional activity at opioid receptors was performed in the gpcrSCAN service by Eurofins DiscoverX. Hit Hunter® cAMP assays were carried out using Enzyme Fragment Complementation (EFC) with β-galactosidase (β-Gal) as the functional reporter.
Assessment of potential positive allosteric modulator (PAM) activity at μ, δ and κ opioid receptors was performed with the DiscoverX HitHunter cAMP XS+ assay by Eurofins DiscoverX (San Diego, CA, USA).

Each structure is given as a SMILES string.

Turning to `CSCC[C@H](NC(=O)[C@H](Cc1ccccc1)NC(=O)CNC(=O)CNC(=O)[C@@H](N)Cc1ccc(O)cc1)C(=O)O` [[Met] Enkephalin, reference compound], the “Hill, cAMP” value came out at 1.8218. Moreover, under “OPRM1, read-out: Max Response, cAMP”, the Emax amounted to 100%.
